Measurements published in PubChem BioAssay AID1347056 (Sanford-Burnham Center for Chemical Genomics, 2019).
This is a selection; strong and weak results do not stand in their true shares. Some results for these compounds are left out of this collection, so the calls shown say nothing about other tests. Active and inactive are the calls of the source.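 How the source made its calls: active means compounds whose plate-normalised and pattern-corrected inhibition of the luciferase reporter signal at the single screening dose is 50% or more; inactive means the rest.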

Assay: TROY pathway blockers in reporter cells – Q293 LMP1-TROYcd cells, NF-kB luciferase, uHTS, primary screen (AID 1347056)
Conditions: 4 h, at 10 µM, hits give high values

SMILES	inhibition
O=C(NCC1(N2CCCCC2)CCCCC1)c1cccc(Cl)c1	inactive: -3.93%
COc1cccc(C(=O)NCC2(N3CCCCC3)CCCCC2)c1	inactive: -2.22%
COc1ccc(Cl)cc1C(=O)NCC1(N(C)C)CCCCC1	inactive: -22%
COc1cc(C(=O)NCC2(N(C)C)CCCCC2)c([N+](=O)[O-])cc1OC	inactive: -5.91%
CN(C)C1(CNC(=O)c2ccc(Br)cc2)CCCCC1	inactive: 8.46%
CC(C)Oc1ccc(C(=O)NCC2(N(C)C)CCCCC2)cc1	inactive: -29.4%
O=C(OCCN1CCCC1)C(O)(c1ccccc1)c1ccccc1	inactive: 14.4%
CN(C)c1cccc(C(=O)NCC2(N(C)C)CCCCC2)c1	inactive: -0.9%
C=C(C)C#CC(O)(C(=O)OC1CCN(C)CC1)c1ccccc1 (stereo unspecified)	inactive: -4.58%
COc1ccc(Br)c(C(=O)NCC2(N3CCCCC3)CCCCC2)c1	inactive: -3.54%
O=C(OC1CN2CCC1CC2)C(CO)(c1ccccc1)c1ccccc1 (stereo unspecified)	inactive: -9.23%
Cc1ccc(C(=O)NCC2(N3CCCCC3)CCCCC2)cc1	inactive: 8.79%
CCN(CC)CC(C)C(C)OC(=O)C(O)(c1ccccc1)c1ccccc1 (stereo unspecified)	inactive: 6.91%
COc1cc(SC)ccc1C(=O)NCC1(N(C)C)CCCCC1	inactive: 0.42%
CC(C)N1C(=O)CC2(CCN(CCOC(=O)C(O)(c3ccccc3)c3ccccc3)CC2)C1=O	inactive: 19.4%
CN1[C@@H]2CC[C@H]1CC(OC(=O)C(O)(c1ccccc1)c1ccccc1)C2 (stereo partly specified)	inactive: -1.63%
O=C(NCC1(N2CCCCC2)CCCCC1)c1cc([N+](=O)[O-])ccc1Cl	inactive: 10.7%
COc1ccc(C(=O)NCC2(N(C)C)CCCCC2)cc1	inactive: -28.5%
Cc1cc(C(=O)NCC2(N3CCCCC3)CCCCC2)ccc1[N+](=O)[O-]	inactive: 7.4%
CCN1CCCC(OC(=O)C2(O)c3ccccc3C=Cc3ccccc32)C1 (stereo unspecified)	inactive: 6.15%
O=C(NCC1(N2CCCCC2)CCCCC1)c1cccc(Br)c1	inactive: -8.51%
C=CCN1CCN(CCOC(=O)C(O)(c2ccccc2)c2ccccc2)CC1	inactive: -13.8%
O=C(NCC1(N2CCCCC2)CCCCC1)c1cc(F)c(F)cc1Cl	inactive: -8.13%
Cc1ccccc1C(=O)NCC1(N2CCCCC2)CCCCC1	inactive: 16.9%
CN(C)C1CCCC1OC(=O)C(O)(c1ccccc1)c1ccccc1 (stereo unspecified)	inactive: 7.33%
CN(C)c1ccc(C(=O)NCC2(N(C)C)CCCCC2)cc1	inactive: -37.7%
